This is a selection; strong and weak results do not stand in their true shares. Some tests of the compounds listed are not included; inactive here does not mean inactive elsewhere. Calls of active or inactive are those of the source.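 How the source made its calls: active means choline transporter activity left, mean of duplicates at 10 µM, below buffer-only control mean minus 3 SD; inactive means the rest.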
Biological target: High affinity choline transporter 1 (Homo sapiens) (UniProt Q9GZV3)
Test: human choline transporter blockers – cell-based, membrane potential dye, duplicate, confirmation (AID 493221)
Conditions: CHT-expressing cells, at 10 µM, LV-to-AA substituted CHT, HEK293 cells

Chains of the proteins cited; added tags and fusions are not shown. Lines headed by an entry give the natural chain unless they say otherwise; changes in a name come on top.
UniProt Q9GZV3, whole entry, stated change not applied: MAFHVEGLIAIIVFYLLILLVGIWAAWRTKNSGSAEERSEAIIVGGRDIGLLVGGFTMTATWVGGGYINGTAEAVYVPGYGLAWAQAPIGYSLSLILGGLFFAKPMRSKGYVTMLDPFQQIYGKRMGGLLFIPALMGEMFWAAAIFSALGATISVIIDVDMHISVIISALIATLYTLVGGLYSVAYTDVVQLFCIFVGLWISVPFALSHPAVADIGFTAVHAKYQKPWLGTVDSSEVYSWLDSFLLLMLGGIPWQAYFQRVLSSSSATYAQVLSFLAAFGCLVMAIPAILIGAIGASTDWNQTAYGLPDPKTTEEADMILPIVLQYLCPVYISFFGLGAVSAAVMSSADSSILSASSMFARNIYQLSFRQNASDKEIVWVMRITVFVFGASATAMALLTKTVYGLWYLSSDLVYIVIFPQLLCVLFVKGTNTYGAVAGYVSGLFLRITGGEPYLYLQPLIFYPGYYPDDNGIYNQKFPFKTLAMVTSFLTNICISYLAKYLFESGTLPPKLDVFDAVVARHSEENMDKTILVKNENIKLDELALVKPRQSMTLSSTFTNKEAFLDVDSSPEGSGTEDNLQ

SMILES | inhibition
CCCCC(CC)C(=O)N1CCN(C/C=C/c2ccccc2)CC1 (stereo unspecified) | inactive: 0%
